Potency and viability change, negative = cytotoxic data for 26 compounds are collected here from PubChem BioAssay (Tox21).

The entries are a selection whose mix differs from that of the whole data set. Records with an inconclusive call do not appear. Where a call stands in place of a potency, no number is given. Active and inactive are the calls of the source. Calls come from the whole dose curve; as a rule, active = well fitted cell-killing curve with a large enough effect in the repeat runs; inconclusive = weak or mixed curves, or effect the other way; inactive = flat fitted curve, though single readings scatter.
Potency is the fitted concentration of half-maximal effect.

A short description of the test: cAMP Responsive Elements (CRE) small molecule antagonists, cell-based qHTS assay: qHTS cell viability counter screen (AID 2060913). Note: nearly all actives have a fitted effect of over 40% in size. The conditions noted are these: CRE-bla HEK293T viability, CellTiter-Glo luminescence, 5 h; series mostly up to 92.4 µM. From the text:
U.S. Tox21 Program National Center for Advancing Translational Sciences [NCATS] Division of Preclinical Innovation [DPI] U.S. Environmental Protection Agency [EPA] National Institutes of Environmental Health Sciences [NIEHS] National Toxicology Program [NTP] U.S. Food and Drug Administration [FDA] Tox21 Assay Overview: CREB (cyclic-AMP Responsive Element Binding Protein) is a cellular transcription factor. It binds to certain DNA sequences called cAMP Responsive Elements (CRE) and regulates the transcription of the genes. […] This cell line can be used to find agonists/antagonists of the cyclic AMP signaling pathway. The activation of the report gene under culture conditions can be detected by fluorescence intensity. This cell line has been used to screen the Tox21 10K compound library to identify agonists that induce oxidative stress. The cytotoxicity of the Tox21 compound library against the CRE-bla cell line was tested in parallel by measuring the cell viability using CellTiter-Glo assay (Promega, Madison, WI) in the same wells.
Tox21 Assay Protocol Summary: CRE-bla Hek 293T cells were suspended in assay medium (DMEM containing 10% dialyzed FBS, 0.1 mM NEAA, 1 mM sodium pyruvate and 25 mM HEPES) and dispensed at 2,000 cells/4 uL /well into 1536-well black wall/clear bottom plates using a Multidrop Combi (ThermoFisher Scientific, Waltham, MA) dispenser. After the assay plates were incubated at 37 C/5% CO2 for 18 hrs, 23 nL of compounds dissolved in DMSO, positive controls or DMSO only was transferred to the assay plate by a pintool workstation (Kalypsys, San Diego, CA), followed by addition of 1 uL of 1.25uM NKH477 (0.25 uM as final concentration) in assay medium using a Flying Reagent Dispenser (Aurora Discovery, San Diego, CA). The plates were incubated at 37 C and 5% CO2 for 3 hrs. Then 1 uL of LiveBLAzer B/G FRET substrate (Invitrogen, Carlsbad, CA) was added to each well using Bioraptr Flying Reagent Dispenser (FRD, Aurora Discovery, San Diego, CA). The plates were incubated at room temperature for 2 h, then fluorescence intensities were measured using an Envision plate reader (PerkinElmer, Shelton, CT) at Excitation 405nm, Emission 460nm and 530nm. The % activity was determined from the ratio of 460nm/530nm. For cell viability readout that measures cytotoxicity, 4 uL /well of CellTiter-Glo reagent was added into the assay plates using Bioraptr FRD. After 30 min incubation at room temperature, the luminescence intensity in the assay plates was measured using a ViewLux (PerkinElmer, Shelton, CT) plate reader.
Background: qHTS replaces the single test concentration by a dilution series.
For the compound `NC(=O)Nc1ccc([As](=O)(O)O)cc1`, the Potency result was “inactive”. Still for that read-out and setting: as for `CN(C(=O)Cc1ccccc1)[C@H]1CC[C@@]2(CCCO2)C[C@@H]1N1CCCC1`, the entry is “inactive”; as for `O=P(Cl)(Oc1ccccc1)Oc1ccccc1`, “inactive”; as for `O=[p+]1oc2ccccc2c2ccccc21` (stereo unspecified), “inactive”. Regarding `O=P(Cl)(Cl)c1ccccc1`, the Potency entry is “inactive”. Consider `CCOP(=S)(CC)Sc1ccccc1` (stereo unspecified), for which the Potency entry is “inactive”. The same measure, in the same setting: in the case of `COC(=O)Cl` it was “inactive”; in that of `CN(N=O)C(=N)N[N+](=O)[O-]`, “inactive”. With `CC(C)CCCCCCCOP(OCCCCCCCC(C)C)Oc1ccccc1`, the Potency entry was “inactive”. The same measure, in the same setting: as for `CN(C(=O)Cc1ccc(Cl)c(Cl)c1)[C@H]1CC[C@@]2(CCCO2)C[C@@H]1N1CCCC1`, the entry is “inactive”. Take `CCOC(=O)Cl`: the Potency entry was “inactive”. The same measure, in the same setting: in the case of `O=[N+]([O-])c1ccc([N+](=O)[O-])cc1` it was “inactive”; in that of `COP(=S)(Cl)OC`, “inactive”. `CCC(C)(OOC(C)(C)C)OOC(C)(C)C`: the viability change, negative = cytotoxic is inactive: 7.96% [at 18.9 µM]. Consider `O=[As]c1ccccc1` (stereo unspecified), for which the Potency was active: 2730 nM. Consider `CN(C(=O)Cc1cccc2occc12)[C@H]1CC[C@@]2(CCCO2)C[C@@H]1N1CCCC1`, for which the Potency entry is “inactive”.

Consider `O=[N+]([O-])c1ccc(S(=O)(=O)O)c([N+](=O)[O-])c1`, for which the Potency result is “inactive”. In the case of `CCCCC(CC)CO[P+](=O)OCC(CC)CCCC` (stereo unspecified), the Potency entry is “inactive”. Same read-out and setting: as for `O=C(Cl)OCCOC(=O)Cl`, the entry is “inactive”. For `CCNC(C)Cc1ccc2c(c1)OCO2` (stereo unspecified), the Potency result is “inactive”. Same read-out and setting: in the case of `CCCCO[P+](=O)OCCCC` it was “inactive”; in that of `ClP(Cl)c1ccccc1`, “inactive”.

For the compound `O=[P+](Oc1ccccc1)Oc1ccccc1`, the Potency entry was “inactive”.

As to `CCCCOP(OCCCC)OCCCC`, the Potency result is “inactive”. Consider `Cc1cc([N+](=O)[O-])c(O)c([N+](=O)[O-])c1`, for which the Potency entry was “inactive”. As to `O=C(Cl)Oc1ccccc1`, the Potency result is “inactive”.
